Measurements as given in US20240254179A1, “Targeting Nuclear Speckles and DNA Speckle Association” (THE TRUSTEES OF THE UNIVERSITY OF PENNSYLVANIA, priority 2023, published 2024).

By UniProt entry, the sequences of proteins in these tests, tags left out. Where a name states a change or a piece, a line headed by the entry shows the natural chain unless it says otherwise.
UniProt Q99814: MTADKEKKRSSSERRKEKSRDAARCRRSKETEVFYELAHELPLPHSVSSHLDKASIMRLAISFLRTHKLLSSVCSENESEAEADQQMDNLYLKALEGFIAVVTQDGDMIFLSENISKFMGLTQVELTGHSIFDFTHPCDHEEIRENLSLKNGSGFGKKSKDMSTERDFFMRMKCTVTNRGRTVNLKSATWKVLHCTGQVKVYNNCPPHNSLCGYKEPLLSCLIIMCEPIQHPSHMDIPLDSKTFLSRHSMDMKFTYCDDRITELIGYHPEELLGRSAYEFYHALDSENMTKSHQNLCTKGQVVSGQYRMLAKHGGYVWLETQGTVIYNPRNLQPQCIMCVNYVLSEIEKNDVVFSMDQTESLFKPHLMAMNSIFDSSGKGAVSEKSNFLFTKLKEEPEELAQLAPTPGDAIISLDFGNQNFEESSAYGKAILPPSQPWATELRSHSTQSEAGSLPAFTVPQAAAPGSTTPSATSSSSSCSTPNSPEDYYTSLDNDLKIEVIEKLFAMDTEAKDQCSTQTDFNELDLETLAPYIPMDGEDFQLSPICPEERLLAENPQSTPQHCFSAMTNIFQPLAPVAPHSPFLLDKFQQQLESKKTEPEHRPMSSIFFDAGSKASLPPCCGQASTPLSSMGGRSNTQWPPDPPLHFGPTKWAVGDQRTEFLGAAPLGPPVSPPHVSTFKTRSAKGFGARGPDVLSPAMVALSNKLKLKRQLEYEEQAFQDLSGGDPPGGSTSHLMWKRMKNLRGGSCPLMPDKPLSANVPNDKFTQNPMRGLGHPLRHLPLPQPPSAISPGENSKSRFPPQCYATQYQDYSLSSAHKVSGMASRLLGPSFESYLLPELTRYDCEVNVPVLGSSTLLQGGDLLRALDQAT

Legend:
HIF2A [1] = target: T1, HIF2A (Homo sapiens, UniProt Q99814)
HIF2A [2] = target: T1, HIF2A; details: 786O cells, DMSO control or PT2399 treatment
HIF2A [3] = target: T1, HIF2A; details: 786O cells, PT2399 versus DMSO vehicle control
HIF2A [4] = target: T1, HIF2A; details: 786O cells, PT2399 versus DMSO
HIF2A [5] = target: T1, HIF2A; details: A498 cells, PT2399

## N#Cc1cc(F)cc(Oc2ccc(S(=O)(=O)C(F)F)c3c2CC(F)(F)[C@H]3O)c1 [PT2399]
HIF2A [1]; 786O cells and A498 cells compared
  number of decreased genes upon PT2399 treatment (RNA-seq): comparable number of decreased genes in each cell type
HIF2A [1]; 786O cells, DMSO control versus PT2399 time course
  gene expression change upon HIF2A inhibition (RNA-seq): the majority of genes are decreasing with HIF2A inhibition
HIF2A [2]
  HIF2A-specific genomic binding (ChIP-seq): a loss of HIF2A-specific binding
HIF2A [3]
  number of HIF2A-dependent genes that decreased their SON TSA-seq speckle signal: 175
HIF2A [4]
  L-shaped relationship between distance to speckle and nascent RNA within transcription sites: abolishes this L-shaped distribution
  distance of HIF2A-responsive genes CCND1 and DDIT4 to speckles: CCND1 and DDIT4 become more distal to speckles
HIF2A [5]
  speckle association of HIF2A-responsive genes: does not alter speckle association of HIF2A-responsive genes
